Data from patent US12528837B2, “Aryl substituted polymyxin derivatives” (priority 2018, dated 2026).

What was measured:
Format in all cases: cell-based
A. baumannii NCTC 13424 = settings: cation-adjusted Mueller-Hinton Broth, 18-20 h, 35° C.
Description: (§1) The inoculum was prepared by making a direct suspension of isolated colonies (selected from an 18-24 hour Mueller-Hinton agar plate) adjusted to the 0.5 McFarland standard. […] The assays were performed in duplicate. […] Several of the compounds were subjected to multiple tests, and where this is the case, the MIC presented is the median value obtained. The MIC values are quoted in μg/mL.

P. aeruginosa ATCC 27853 = tested on: P. aeruginosa ATCC 27853
Description: as §1

[1] = tested on: A. baumannii ATCC BAA-747
Description: as §1

E. coli ATCC 25922 [2] = tested on: E. coli ATCC 25922
Description: as §1

K. pneumoniae ATCC 13822 = tested on: K. pneumoniae ATCC 13822
Description: as §1

E. coli ATCC 25922 [3] = tested on: E. coli ATCC 25922; remark: listed apart in the source
Description: (§2) MIC values (μg/mL) were determined by broth microdilution under CLSI conditions.

K. pneumoniae ATCC 13882 = tested on: K. pneumoniae ATCC 13882
Description: as §2

[4] = cation-adjusted Mueller-Hinton Broth, 18-20 h, 35° C.

CC(C)C[C@@H]1NC(=O)[C@@H](CC(C)C)NC(=O)[C@H](CCN)NC(=O)[C@@H](NC(=O)[C@H](CN)NC(=O)[C@@H](NC(=O)C[C@H](CN)Cc2ccccc2)[C@@H](C)O)CCNC(=O)[C@H]([C@@H](C)O)NC(=O)[C@H](CCN)NC(=O)[C@H](CCN)NC1=O [Example 7, (R)-4-amino-3- benzylbutanoyl -Thr- Dap-Cyclo[Dab-Dab- DLeu-Leu-Dab-Dab- Thr]. Isomer 1]
0.125 µg/mL: MIC A. baumannii NCTC 13424 (A. baumannii NCTC 13424) | MIC P. aeruginosa ATCC 27853 (P. aeruginosa ATCC 27853; [4]) | MIC A. baumannii ATCC BAA-747 [1, 4]

CC(C)C[C@@H]1NC(=O)[C@@H](Cc2ccccc2)NC(=O)[C@H](CCN)NC(=O)[C@@H](NC(=O)[C@H](CN)NC(=O)[C@@H](NC(=O)C[C@@H](CN)c2cccc(Cl)c2)[C@@H](C)O)CCNC(=O)[C@H]([C@@H](C)O)NC(=O)[C@H](CCN)NC(=O)[C@H](CCN)NC1=O [Example 6, (R)-4-amino-3-(3- chlorophenyl) butanoyl- Thr-Dap-Cyclo[Dab- Dab-DPhe-Leu-Dab- Dab-Thr]]
0.125 µg/mL: MIC E. coli ATCC 25922 (E. coli ATCC 25922 [2]; ATCC 25922) | MIC K. pneumoniae ATCC 13822 (K. pneumoniae ATCC 13822; ATCC 13822) | MIC P. aeruginosa ATCC 27853 (P. aeruginosa ATCC 27853; ATCC 27853)

CC[C@@H]1NC(=O)[C@@H](Cc2ccccc2)NC(=O)[C@H](CCN)NC(=O)[C@@H](NC(=O)[C@H](CN)NC(=O)[C@@H](NC(=O)C[C@H](CN)c2cccc(C(C)C)c2)[C@@H](C)O)CCNC(=O)[C@H]([C@@H](C)O)NC(=O)[C@H](CCN)NC(=O)[C@H](CCN)NC1=O [Example 17]
0.125 µg/mL: MIC E. coli ATCC 25922 (E. coli ATCC 25922 [2]; [4]) | MIC K. pneumoniae ATCC 13822 (K. pneumoniae ATCC 13822; [4]) | MIC P. aeruginosa ATCC 27853 (P. aeruginosa ATCC 27853; [4])

CC(C)C[C@@H]1NC(=O)[C@@H](Cc2ccccc2)NC(=O)[C@H](CCN)NC(=O)[C@@H](NC(=O)[C@H](CN)NC(=O)[C@@H](NC(=O)C[C@H](CN)c2cccc(Cl)c2)[C@@H](C)O)CCNC(=O)[C@H]([C@@H](C)O)NC(=O)[C@H](CCN)NC(=O)[C@H](CCN)NC1=O [Example 5, (S)-4-amino-3-(3- chlorophenyl)butanoyl- Thr-Dap-Cyclo[Dab- Dab-DPhe-Leu-Dab- Dab-Thr]]
0.125 µg/mL: MIC E. coli ATCC 25922 (E. coli ATCC 25922 [2]; ATCC 25922) | MIC K. pneumoniae ATCC 13822 (K. pneumoniae ATCC 13822; ATCC 13822) | MIC A. baumannii ATCC BAA-747 ([1]; ATCC BAA-747) | MIC E. coli ATCC 25922 (E. coli ATCC 25922 [3]) | MIC K. pneumoniae ATCC 13882 (K. pneumoniae ATCC 13882)

Read-outs that look alike come from different tables or passages of the source.
